Assay results as given in ChEMBL document CHEMBL4732230, “Design, synthesis, and biological evaluation of 4-benzoylamino-1H-pyrazole-3-carboxamide derivatives as potent CDK2 inhibitors” (Eur J Med Chem, 2021).

Chains of the proteins cited; added tags and fusions are not shown.
UniProt P06493, whole entry: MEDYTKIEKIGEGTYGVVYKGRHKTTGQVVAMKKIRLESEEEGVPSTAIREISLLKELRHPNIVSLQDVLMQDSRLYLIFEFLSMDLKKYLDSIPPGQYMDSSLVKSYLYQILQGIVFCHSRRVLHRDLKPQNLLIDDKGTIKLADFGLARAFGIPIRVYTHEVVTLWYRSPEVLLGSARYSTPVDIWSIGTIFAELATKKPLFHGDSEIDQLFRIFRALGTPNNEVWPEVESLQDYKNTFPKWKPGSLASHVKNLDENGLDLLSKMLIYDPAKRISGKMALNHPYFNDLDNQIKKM

Biological target: Cyclin-dependent kinase 1/cyclin B1 (Homo sapiens, UniProt P06493)
Format: protein-complex assay

O=C(NC1CCNCC1)c1n[nH]cc1NC(=O)c1c(F)cccc1F
IC50: 594 nM
